Test results taken from patent US20260108687A1 (Belhaven BioPharma Inc., priority 2024, published 2026).

Experiment: Phase 1 clinical study / Study 101: plasma epinephrine pharmacokinetics
Type: in vivo
Conditions: human, 0.5 mg IM, read-out: mean baseline-corrected Cmax
Protocol: Nor did the subject participate in Treatment D.
Blood samples were collected prior to dosing at 60, 30, and 0 minutes before dosing, and after dosing at 2, 5, 7, 10, 15, 20, 25, 30, 45, 60, 90, 120, 180, 240, and 360 minutes. […] Blood samples were analyzed in 8 runs with between run accuracy of −3.66% to 4.02% and precision of 1.30% to 9.94%. […] Recovery was >75% and freeze-thaw, short-term and long-term stability (584 days) were all shown to be acceptable; the analyte was stable under all conditions tested.
Baseline correction was accomplished using the average of the measured concentrations at nominal times of −60, −30, and 0 minutes before dosing.
Each patient was provided each treatment of the trial with 72-hour washout periods between each treatment, beginning with a 3.5 mg intranasal dose, followed by a 0.3 mg intramuscular dose, followed by a 0.5 mg intramuscular dose, and concluding with a 5.5 mg intranasal dose, with a safety follow-up performed 3 to 5 days after the final dose was administered. The primary endpoints of the study were pharmacokinetic measurements and assessments of comparative bioavailability, while the secondary endpoints were safety concerns and pharmacodynamic assessments.

Cmax: 396 µg/mL
Compound: CNC[C@H](O)c1ccc(O)c(O)c1 [Epinephrine IM, epinephrine]
